Measurements from paper PMC5085761 (International Journal of Molecular Sciences, 2016).

System: LLC-PK1 monolayers
Assay: Apical-to-basal transport through LLC-PK1 monolayers
Type: in vitro ADME, pig
Settings: 10 µM tracer, at 120 min
Experimental: The LLC-PK1 cell line was purchased from DS Pharma Biomedical (Osaka, Japan). Cells were maintained in Dulbecco’s modified Eagle’s medium (DMEM; Life Technologies Japan, Tokyo, Japan) supplemented with 10% (v/v) fetal bovine serum (American Type Culture Collection, Manassas, VA, USA) and antibiotics (100 U/mL penicillin and 100 μg/mL streptomycin (Life Technologies Japan)). Cells were cultured at 37 °C under an atmosphere containing 5% CO2 before the start of the experiments.
Cells were seeded at a density of 1.5 × 10^6 cells/0.25 mL on the membrane of cell culture inserts fitting 24-well plates (upper compartment, apical side; Becton Dickinson, Franklin Lakes, NJ, USA). Flat-bottom 24-well tissue culture plates (Becton Dickinson) containing 0.95 mL of culture medium per well were used as the basolateral side (bottom compartment).
LLC-PK1 monolayer formation was monitored by the measurement of TER using an EVOM-2 and Endohm24 (World Precision Instruments, Inc., Sarasota, FL, USA) according to the manufacturer’s protocol. […] [^3H]Mannitol transport was measured as described in Section 4.3 for the validation of tight junction formation because mannitol passes through the cell monolayers via the paracellular route. […]
The apical-to-basal permeability was measured by sampling an aliquot of the buffer from the upper and bottom compartment at the indicated times. […]

With L-[^14C]alanine the “mean penetration amount (apical-to-basal transport)” value was 85.5 pmol and the “mean residual radioactivity in the cells” value was 15.2 pmol.
